Experimental findings from US20250375499A1 (FLAGSHIP PIONEERING INNOVATIONS VII, published 2025) are described below.

Chains of the proteins cited; added tags and fusions are not shown. A line that says so, or that is headed by a name, gives the form on record, which may keep a tag or linker. Residues count along the entry.
UniProt O43557, 83-240 limits assumed: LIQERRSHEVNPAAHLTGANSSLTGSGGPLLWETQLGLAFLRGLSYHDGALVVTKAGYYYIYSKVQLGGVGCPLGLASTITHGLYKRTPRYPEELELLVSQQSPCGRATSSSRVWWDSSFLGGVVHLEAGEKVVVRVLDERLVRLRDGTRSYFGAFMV
recombinant human TNFα (Acro Bio TNA-H5228), one chain, as listed by the source limits assumed: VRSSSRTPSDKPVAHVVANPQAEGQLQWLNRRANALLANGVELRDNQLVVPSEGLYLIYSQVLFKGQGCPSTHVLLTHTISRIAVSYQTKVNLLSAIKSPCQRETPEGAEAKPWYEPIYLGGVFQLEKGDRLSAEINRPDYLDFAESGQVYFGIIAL

For assay [1], the target named is T1, recombinant human TL1A (Acro Bio TLA-H5244), plate bound (human, UniProt O95150 72-251, limits assumed).
T1 construct: Bought protein; also called hTL1A; Tumor Necrosis Factor Ligand Superfamily Member 15
T1 sequence: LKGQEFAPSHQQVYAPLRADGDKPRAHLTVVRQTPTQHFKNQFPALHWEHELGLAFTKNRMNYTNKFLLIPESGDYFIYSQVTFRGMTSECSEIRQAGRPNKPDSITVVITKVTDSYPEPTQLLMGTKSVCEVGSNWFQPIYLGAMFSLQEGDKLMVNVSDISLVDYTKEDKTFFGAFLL
The assay is described as follows: ELISA: plate coated with recombinant human TL1A (2 µg/mL), Fc-tagged protein titrated 3-fold from 10 nM, anti-human Fc HRP, OD 450 nm background subtracted. For orientation: In an ELISA, binding on a coated surface is turned into a signal by an enzyme label.

In assay [2] the target is T2, recombinant human TNFα (Acro Bio TNA-H5228) (human).
T2 construct: Bought protein; also called hTNFα
The experiment in a line: ELISA: plate coated with recombinant human TNFα (2 µg/mL), Fc-tagged protein titrated 3-fold from 10 nM, anti-human Fc HRP, OD 450 nm background subtracted.

The target of assay [3] is T3, recombinant human LIGHT (Acro Bio LIT-H5242) (human, UniProt O43557, in part).
T3 construct: Bought protein; also called hLIGHT; Tumor Necrosis Factor Ligand Superfamily Member 14
The assay is described as follows: ELISA: plate coated with recombinant human LIGHT (2 µg/mL), Fc-tagged protein titrated 3-fold from 10 nM, anti-human Fc HRP, OD 450 nm background subtracted.

The target of assay [4] is T4, recombinant human FASL (Acro Bio HAL-H5241) (human, UniProt P48023 134-281, limits assumed).
T4 construct: Bought protein; also called hFASL; FAS Ligand
T4 sequence: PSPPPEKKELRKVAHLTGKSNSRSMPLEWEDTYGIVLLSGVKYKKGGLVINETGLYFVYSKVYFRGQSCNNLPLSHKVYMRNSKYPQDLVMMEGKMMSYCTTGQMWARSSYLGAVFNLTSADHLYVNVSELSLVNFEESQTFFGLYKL
The experiment in a line: ELISA: plate coated with recombinant human FASL (2 µg/mL), Fc-tagged protein titrated 3-fold from 10 nM, anti-human Fc HRP, OD 450 nm background subtracted.

B1: hFc (other)
Fc chain: AESKYGPPCPPCPAPEAAGGPSVFLFPPKPKDTLMISRTPEVTCVVVDVSQEDPEVQFNWYVDGVEVHNAKTKPREEQFNSTYRVVSVLTVLHQDWLNGKEYKCKVSNKGLPSSIEKTISKAKGQPREPQVYTLPPSQEEMTKNQVSLTCLVKGFYPSDIAVEWESNGQPENNYKTTPPVLDSDGSFFLYSRLTVDKSRWQEGNVFSCSVMHEALHNHYTQKSLSLSLG
notes: also called human IgG4 Fc
As for B1, the binding result in assay [1], in assay [2], in assay [3] and in assay [4] was “no binding (tested: 10 nM (LOG[Dose] 1))” in each case.
